Reference: US9073897B2, “Cyclic sulfonium salt, process for production of same, and α-glucosidase inhibitor comprising same” (KINKI UNIVERSITY, priority 2011, dated 2015)

Protein sequences, listed by entry. Tags and fused reporters are not part of them. Lines headed by an entry give the natural chain unless they say otherwise; changes in a name come on top.
UniProt P23739: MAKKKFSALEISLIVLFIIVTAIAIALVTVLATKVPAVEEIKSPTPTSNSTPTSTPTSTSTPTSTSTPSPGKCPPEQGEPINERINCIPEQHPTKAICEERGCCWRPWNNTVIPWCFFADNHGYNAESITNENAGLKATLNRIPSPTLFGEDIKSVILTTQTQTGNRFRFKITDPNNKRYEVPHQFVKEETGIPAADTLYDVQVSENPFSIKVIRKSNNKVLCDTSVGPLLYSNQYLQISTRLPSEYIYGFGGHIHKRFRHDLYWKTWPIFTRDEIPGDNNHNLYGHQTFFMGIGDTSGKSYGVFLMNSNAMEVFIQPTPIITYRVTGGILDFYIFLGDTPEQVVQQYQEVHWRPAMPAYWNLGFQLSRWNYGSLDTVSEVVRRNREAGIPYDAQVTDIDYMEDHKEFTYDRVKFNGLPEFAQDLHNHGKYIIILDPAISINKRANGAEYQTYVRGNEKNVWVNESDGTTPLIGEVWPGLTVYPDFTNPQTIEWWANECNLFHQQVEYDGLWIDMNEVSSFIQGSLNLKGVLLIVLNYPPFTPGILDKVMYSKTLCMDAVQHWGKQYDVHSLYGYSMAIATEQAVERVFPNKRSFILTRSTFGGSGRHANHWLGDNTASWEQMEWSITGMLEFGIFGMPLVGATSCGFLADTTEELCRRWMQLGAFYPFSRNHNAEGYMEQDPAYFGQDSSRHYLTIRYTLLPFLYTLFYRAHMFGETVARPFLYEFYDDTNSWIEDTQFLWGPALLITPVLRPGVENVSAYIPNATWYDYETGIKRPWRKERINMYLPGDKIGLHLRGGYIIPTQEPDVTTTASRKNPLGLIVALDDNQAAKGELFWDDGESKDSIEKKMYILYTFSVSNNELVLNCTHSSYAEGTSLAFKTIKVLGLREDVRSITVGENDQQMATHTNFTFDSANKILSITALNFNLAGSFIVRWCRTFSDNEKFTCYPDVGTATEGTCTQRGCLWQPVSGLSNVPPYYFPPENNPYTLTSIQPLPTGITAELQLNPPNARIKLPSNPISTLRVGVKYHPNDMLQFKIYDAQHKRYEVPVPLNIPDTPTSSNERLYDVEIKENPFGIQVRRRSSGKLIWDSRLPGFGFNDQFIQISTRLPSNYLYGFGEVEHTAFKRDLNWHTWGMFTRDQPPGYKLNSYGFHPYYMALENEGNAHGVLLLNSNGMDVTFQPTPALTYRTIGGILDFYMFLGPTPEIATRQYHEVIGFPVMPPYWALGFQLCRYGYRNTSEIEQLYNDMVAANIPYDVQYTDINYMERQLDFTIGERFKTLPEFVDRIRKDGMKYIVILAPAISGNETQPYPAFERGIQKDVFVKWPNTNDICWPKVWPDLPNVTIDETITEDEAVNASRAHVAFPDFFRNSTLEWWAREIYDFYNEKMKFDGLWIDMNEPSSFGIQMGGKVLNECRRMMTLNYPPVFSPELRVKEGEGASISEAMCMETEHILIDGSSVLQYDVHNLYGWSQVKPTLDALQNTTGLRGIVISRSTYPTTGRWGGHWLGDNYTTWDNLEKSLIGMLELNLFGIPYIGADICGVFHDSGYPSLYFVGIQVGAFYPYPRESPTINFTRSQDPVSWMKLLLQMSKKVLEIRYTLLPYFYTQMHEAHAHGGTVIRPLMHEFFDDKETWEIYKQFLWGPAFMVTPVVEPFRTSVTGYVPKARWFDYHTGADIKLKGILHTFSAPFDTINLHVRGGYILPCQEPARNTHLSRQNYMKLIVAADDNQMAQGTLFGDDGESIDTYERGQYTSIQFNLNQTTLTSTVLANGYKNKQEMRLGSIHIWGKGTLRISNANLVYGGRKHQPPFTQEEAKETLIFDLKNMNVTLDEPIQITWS

Key:
Isomaltase = biological target: T1, Isomaltase (Rattus norvegicus, UniProt P23739); experiment: α-glucosidase inhibition, rat small intestinal brush border membrane, isomaltose substrate; format: biochemical; details: rat small intestine brush border membrane; isomaltose (74 mM); 0.1M maleate buffer (pH6.0); 37° C. for 30 minutes
T1 construct: Brush border membrane follicles of rat's small intestine were prepared; from tissue; host or cells: rat small intestine brush border membrane vesicles
Experimental: (§1) Brush border membrane follicles of rat's small intestine were prepared in accordance with the literature (Kessler, M. et al., Biochem. Biophys. Act, 1978, 506, 136), and a suspension of the follicles in 0.1M maleate buffer (pH6.0) was used as an intraintestinal α-glucosidase (maltase, sucrose and isomaltase).
(§2) A compound to be tested was dissolved in methylsulfoxide (DMSO) and the resulting solution was diluted with 0.1M maleate buffer to prepare a solution of the testing compound (DMSO concentration: 10%). A solution of a substrate (sucrose (74 mM), maltose (74 mM) or isomaltose (74 mM, […]) in the maleate buffer, a solution (25 μl) of the testing compound and the enzyme solution (25 μl) were mixed and the resulting solution was incubated at 37° C. for 30 minutes. Immediately after incubation, the resulting solution was heated by boiling water to terminate the reaction and mixed with water (150 μl). The concentration of glucose was measured by glucose oxidase method. The final concentration of DMSO in the testing solution was set to 2.5%, and no influence of DMSO on an inhibitory activity was detected. A 50% inhibitory concentration (IC50) was computed from the measured values.

Sucrase = biological target: T2, Sucrase (Rattus norvegicus, UniProt P23739); experiment: α-glucosidase inhibition, rat small intestinal brush border membrane, sucrose substrate; format: biochemical; details: rat small intestine brush border membrane; sucrose (74 mM); 0.1M maleate buffer (pH6.0); 37° C. for 30 minutes
T2 construct: Brush border membrane follicles of rat's small intestine were prepared; from tissue; host or cells: rat small intestine brush border membrane vesicles
Experimental: as §1, §2

α-glucosidase (IC50) Isomaltase (Isomaltase): 646 µg/mL
α-glucosidase (IC50) Sucrase (Sucrase): 2 µg/mL
SMILES: C[C@H]1O[C@H](O[C@H]2[C@H](O)[C@@H](O)[C@@H](O[C@H]3[C@H](O)[C@@H](O)C(O)O[C@@H]3CO)O[C@@H]2CO)[C@H](O)[C@@H](O)[C@@H]1N[C@H]1C=C(CO)[C@@H](O)[C@H](O)[C@H]1O (some centres unmarked) [acalbose, reference compound]
